Measured values reported in patent publication EP1140925B1, “(3,4 DIHYDRO-2H-BENZO[1,4] OXAZINYL-METHYL)- 3-(1H-INDOL-3- YL)-ALKYL -AMINES” (Wyeth, priority 1999, dated 2000).

The chains behind the UniProt entries cited, without tags or fusion partners.
UniProt P08908, whole entry, looked up: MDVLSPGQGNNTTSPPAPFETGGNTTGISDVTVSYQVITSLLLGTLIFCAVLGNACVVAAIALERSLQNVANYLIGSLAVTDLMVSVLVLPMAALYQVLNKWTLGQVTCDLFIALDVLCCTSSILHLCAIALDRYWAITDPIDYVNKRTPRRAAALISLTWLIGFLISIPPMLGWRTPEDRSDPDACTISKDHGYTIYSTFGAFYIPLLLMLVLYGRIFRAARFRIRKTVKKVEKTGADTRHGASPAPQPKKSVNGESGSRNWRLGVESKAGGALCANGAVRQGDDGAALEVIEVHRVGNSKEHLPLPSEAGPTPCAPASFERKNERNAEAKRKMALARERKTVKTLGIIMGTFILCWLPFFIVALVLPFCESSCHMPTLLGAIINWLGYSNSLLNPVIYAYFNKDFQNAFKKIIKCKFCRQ
UniProt P31652, whole entry, looked up: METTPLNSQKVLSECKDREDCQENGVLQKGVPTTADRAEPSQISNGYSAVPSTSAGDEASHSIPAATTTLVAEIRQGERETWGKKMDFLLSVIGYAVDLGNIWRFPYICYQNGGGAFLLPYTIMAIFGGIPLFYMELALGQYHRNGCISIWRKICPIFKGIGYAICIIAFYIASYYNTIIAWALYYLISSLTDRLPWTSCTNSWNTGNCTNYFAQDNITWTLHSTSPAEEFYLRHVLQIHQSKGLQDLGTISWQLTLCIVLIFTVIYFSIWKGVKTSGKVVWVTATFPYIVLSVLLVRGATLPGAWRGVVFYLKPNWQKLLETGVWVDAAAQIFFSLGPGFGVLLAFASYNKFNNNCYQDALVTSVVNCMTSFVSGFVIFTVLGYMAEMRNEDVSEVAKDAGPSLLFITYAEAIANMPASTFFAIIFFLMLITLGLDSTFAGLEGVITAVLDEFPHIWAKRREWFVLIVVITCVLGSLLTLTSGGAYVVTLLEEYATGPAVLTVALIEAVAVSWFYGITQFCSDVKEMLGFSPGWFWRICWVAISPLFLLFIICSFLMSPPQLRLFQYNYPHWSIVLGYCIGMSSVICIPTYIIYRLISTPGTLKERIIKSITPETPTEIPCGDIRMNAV

Key:
human 5-HT1A receptor = human 5-HT1A receptor (Homo sapiens, UniProt P08908); experiment: 5-HT1A receptor binding assay with [3H]8-OH-DPAT in CHO cell membranes; settings: read-out: 5-HT1A (Ki); [3H]8-OH-DPAT 1.5 nM, membranes of CHO cells expressing human 5-HT1A receptor
serotonin transporter = serotonin transporter (Rattus norvegicus, UniProt P31652); experiment: Serotonin transporter affinity, 3H-paroxetine binding to frontal cortical membranes; set-up: species or system Sprague-Dawley rats; settings: read-out: ST (Ki, nM, % Inh. @.1 µM), 3H-paroxetine 0.1 nM, head also allows % Inh. @.1 µM

## c1ccc(N2CC(CNCCCCc3c[nH]c4ccccc34)Oc3ccccc32)cc1 (centres unmarked)
Human 5-HT1A receptor
  Ki: 75.8 nM
Serotonin transporter
  Ki: 7 nM
